Measurements from patent US12371658B2, “Three-dimensional microtissues with integrated mechanical loading” (Carnegie Mellon University, priority 2017, dated 2025).

System: cardiac MIFIs (HUES9-CMs with 10% FBs)
Test: side-on contractility assay of cardiac MIFIs with drug dosing (twitch force, beat frequency)
Assay type: cell-based, human
Conditions: epinephrine, second of two values; dose not given
Method: MIFIs were removed from wells using forceps and were transferred to a 35 mm petri dish filled with 37° C. Tyrode's solution (1.192 g HEPES, 0.203 g MgCl2, 0.403 g KCl, 7.889 g NaCl, 0.04 g NaH2PO4, 0.901 g C6H12O6, and 0.265 g CaCl2) per liter of distilled water, pH 7.4). MIFIs were anchored by placing the wide base of the strip into a slit in a PDMS block glued to the bottom of the stimulation dish. The Tyrode's bath was maintained between 30° and 37° C. using a heated stage regulated by an in house Lab VIEW program. Videos of samples were taken using a NikonTM […] DSLR camera mounted on a NikonTM SMZ1500 stereomicroscope. Samples were paced from 2-10 Hz using parallel platinum electrodes placed 2 cm apart and immersed in Tyrode's solution. Samples were stimulated with 40V using a 10 ms square pulse wave. Shorter pulse durations can also be used (e.g., 2 ms, 4 ms, 6 ms, etc.). Carbachol and isoprenaline were mixed to stock concentrations of 5 mM in 1× Tyrode's solution. […] By tracking the change in tissue length of beating MIFIs, we calculated force generated by these tissues using force lookup tables. […] It is possible that this decrease in contractility at Day 10 was a result of remodeling in these tissues around Day 10, something that was reflected in the fluorescence staining. […]

CNC[C@H](O)c1ccc(O)c(O)c1 [epinephrine]
beat frequency relative to initial BPM: 1.65 ×
